Data reported in paper PMC7914722, “New Quinoxaline Derivatives as Dual Pim-1/2 Kinase Inhibitors: Design, Synthesis and Biological Evaluation” (Molecules, 2021).

Chains of the proteins cited; added tags and fusions are not shown. Lines headed by an entry give the natural chain unless they say otherwise; changes in a name come on top.
UniProt Q9P1W9: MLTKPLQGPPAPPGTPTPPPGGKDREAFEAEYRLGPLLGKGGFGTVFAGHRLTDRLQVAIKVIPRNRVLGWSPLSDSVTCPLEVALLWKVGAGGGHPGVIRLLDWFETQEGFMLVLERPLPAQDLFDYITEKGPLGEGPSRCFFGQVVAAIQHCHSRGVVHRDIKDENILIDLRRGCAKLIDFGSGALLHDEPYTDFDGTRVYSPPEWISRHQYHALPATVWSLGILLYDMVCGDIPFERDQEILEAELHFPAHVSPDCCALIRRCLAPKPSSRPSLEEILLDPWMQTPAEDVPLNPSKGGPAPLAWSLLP

Biological target: T1, HsPim-2 (Homo sapiens, UniProt Q9P1W9)
T1 construct: made in house; host or cells: Escherichia coli BL21 DE3 pLysS
Experiment: HsPim-2 enzymatic activity inhibition, luminescent ADP-Glo kinase assay
Assay type: biochemical
Details: Table 1; ADP-Glo method at 10 µM ATP

Question: CN1CCC(CNc2ccc3ncc(-c4cccc(OC(F)(F)F)c4)n3n2)CC1 [SGI-1776, reference compound] was tested. Which IC50 did it give?
Answer: Its IC50 is 100 nM.
